Measured values: PMC5253664

Amino acid sequences for entries named in this document (tags omitted). Residues count along the entry.
UniProt P25106, 2-362 R197C: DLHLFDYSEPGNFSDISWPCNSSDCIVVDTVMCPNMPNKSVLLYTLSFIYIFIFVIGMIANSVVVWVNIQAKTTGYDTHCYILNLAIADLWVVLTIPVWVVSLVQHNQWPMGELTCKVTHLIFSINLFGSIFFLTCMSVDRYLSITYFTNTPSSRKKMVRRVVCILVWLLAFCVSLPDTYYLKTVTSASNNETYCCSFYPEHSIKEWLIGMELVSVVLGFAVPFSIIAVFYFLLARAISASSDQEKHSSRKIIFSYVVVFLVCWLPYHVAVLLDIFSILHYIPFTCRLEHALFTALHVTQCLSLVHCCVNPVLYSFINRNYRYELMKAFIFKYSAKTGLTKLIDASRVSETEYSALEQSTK

How the values were obtained:
[1] = target: ACKR3 fused to Renilla luciferase 3 (ACKR3-Rluc3) (human) (UniProt P25106)
R197C-ACKR3 (human) = R197C-ACKR3 (human) (UniProt P25106); assay: cross-linking; disulfide trapping: Cys mutants of receptor and chemokine coexpressed in Sf9, purified on TALON in DDM/CHS; non-reducing 10% SDS-PAGE, Coomassie staining and western blot (anti-FLAG, anti-HA)

Row | potency (EC50) of CXCL12-induced β-arrestin-2 recruitment to ACKR3-Rluc3, BRET in HEK293 cells [1] | percent disulfide-trapped complex (R197C-ACKR3 (human)) | Substance
1 | 8.5 nM |  | recombinant CXCL12 from E. coli (residues 22-89 of CXCL12α) (from UniProt P48061-2 22-89) (ligand)
2 |  | 100% | Y7C-CXCL12 (ligand)
